Measured values taken from ChEMBL document CHEMBL1152222, “Effect of B-ring substitution pattern on binding mode of propionamide selective androgen receptor modulators” (Bioorg Med Chem Lett, 2008).

Molecular target: T1, Androgen receptor (Rattus norvegicus, UniProt P15207)
T1 sequence (P15207 whole entry): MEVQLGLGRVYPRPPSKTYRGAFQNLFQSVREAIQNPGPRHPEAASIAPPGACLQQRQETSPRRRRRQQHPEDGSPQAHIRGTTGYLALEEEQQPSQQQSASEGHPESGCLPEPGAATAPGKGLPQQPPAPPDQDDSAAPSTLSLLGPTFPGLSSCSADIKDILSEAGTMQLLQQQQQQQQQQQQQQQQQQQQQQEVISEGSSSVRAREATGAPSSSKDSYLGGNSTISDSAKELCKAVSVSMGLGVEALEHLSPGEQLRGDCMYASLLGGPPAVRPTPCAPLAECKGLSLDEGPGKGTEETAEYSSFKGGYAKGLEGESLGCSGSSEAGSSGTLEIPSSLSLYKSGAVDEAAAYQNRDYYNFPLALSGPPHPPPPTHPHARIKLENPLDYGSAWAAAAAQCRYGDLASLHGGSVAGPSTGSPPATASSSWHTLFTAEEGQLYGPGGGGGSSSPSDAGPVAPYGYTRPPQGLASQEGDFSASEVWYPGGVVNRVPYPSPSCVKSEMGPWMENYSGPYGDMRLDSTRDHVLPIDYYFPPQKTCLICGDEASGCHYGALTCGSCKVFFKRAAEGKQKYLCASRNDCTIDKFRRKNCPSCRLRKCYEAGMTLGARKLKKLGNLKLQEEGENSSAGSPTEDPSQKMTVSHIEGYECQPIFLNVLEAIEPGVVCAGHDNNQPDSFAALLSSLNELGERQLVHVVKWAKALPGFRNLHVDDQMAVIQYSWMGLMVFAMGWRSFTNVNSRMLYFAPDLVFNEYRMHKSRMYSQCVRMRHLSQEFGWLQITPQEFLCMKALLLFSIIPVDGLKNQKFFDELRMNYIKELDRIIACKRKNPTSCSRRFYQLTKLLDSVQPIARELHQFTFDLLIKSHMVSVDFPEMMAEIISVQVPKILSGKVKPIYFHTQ

C[C@@](O)(COc1ccc(Cl)c(F)c1)C(=O)Nc1ccc(C#N)c(C(F)(F)F)c1
Ki: 1.7 nM
